## scFv variants of Ab-14 (light chain) against a SARS-CoV-2 spike peptide

The measurements come from Li et al. 2023 (doi:10.1038/s41467-023-39022-2) through the FLAb antibody collection.

Antigen: PDVDLGDISGINAS, a 14-residue peptide of the SARS-CoV-2 spike HR2 region.

Parent: Ab-14, a human scFv built as VH, a 15-residue (Gly4Ser)3 linker, VL. Only the CDRs of the light chain vary.
VH: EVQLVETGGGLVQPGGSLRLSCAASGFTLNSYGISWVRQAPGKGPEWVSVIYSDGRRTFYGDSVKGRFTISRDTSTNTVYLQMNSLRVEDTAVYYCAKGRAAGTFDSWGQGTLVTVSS
VL: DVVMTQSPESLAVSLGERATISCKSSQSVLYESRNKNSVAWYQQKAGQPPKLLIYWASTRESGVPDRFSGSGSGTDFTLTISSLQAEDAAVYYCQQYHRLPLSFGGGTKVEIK

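Phage display of a naive human antibody library on the peptide gave the parent. These sequences belong to a second round, designed from the earlier measurements on random variants of the parent. Group labels follow the data file (Ctrl: baseline library sampled from a position-specific scoring matrix, with some repeated check sequences; GP: Gaussian process model; HC: hill climbing; Gen: genetic algorithm; Gibbs: Gibbs sampling; a sequence that several methods proposed may carry one label only). The assay is AlphaSeq: two haploid yeast populations carry antibody and antigen on their surface. After mating in shaken culture at 30 °C for 16 h, diploids were selected and their barcode pairs sequenced. Scores were corrected for input abundance and mapped to Kd with protein pairs of known affinity run in the same pool. There are six technical replicates.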

Substitutions are numbered in sequence along the VL above, starting at 1 (not Kabat). This list holds designs with at most six substitutions. The Kd shown is the geometric mean over detected replicates; a lower Kd is a better binder. Where no diploid with the target was found in any replicate, the entry reads "nd": below detection, most likely a poor binder, though not proof of it. The range of this assay differs from that of the first round, and the authors advise against merging the two.

Variant S28H/Y31E/W56Q [Ctrl] gave 2.9 nM (6 of 6 replicates; controls 0 of 18). For W56G/T59I [Ctrl], the assay gave 2.3 nM (6 of 6 replicates; controls 0 of 18). Variant K36L/W56G [Ctrl] gave 970 pM (6 of 6 replicates; controls 2 of 18). For S25L/L30A/Y31M/K36A/W56D [GP_HC], the assay gave 1.7 nM (6 of 6 replicates; controls 0 of 18). For S25L/S26P/V29E/W56Q [GP_Gen], the assay gave 260 pM (6 of 6 replicates; controls 0 of 18). Variant N37Y/L100Q [Ctrl] gave nd (0 of 6 replicates; controls 0 of 18). Variant S25F/N35T/W56N/Q96D [GP_HC] showed 480 pM (6 of 6 replicates; controls 0 of 18).

With S25M/Q27G/R99Q [Ctrl] the result was 4.3 nM (6 of 6 replicates; controls 0 of 18). Variant S25F/S26P/W56D [GP_Gen] showed 300 pM (6 of 6 replicates; controls 0 of 18). With S25L/W56N/S58Q/E61M [GP_Gen] the result was 550 pM (6 of 6 replicates; controls 1 of 18). For V29E/R34M [Ctrl], the assay gave 10 nM (5 of 6 replicates; controls 2 of 18). Variant S25L/S26E/V29W/W56N/T59Q/S62D [GP_Gen] showed 13 nM (6 of 6 replicates; controls 0 of 18). Variant K24L/V29A/H98D [Ctrl] showed nd (0 of 6 replicates; controls 0 of 18). For S25L/V29F/S33D/K36W/W56A/T59K [GP_Gibbs], the assay gave 1.6 nM (6 of 6 replicates; controls 1 of 18).

For S25L/S38A/W56A [GP_Gen], the assay gave 810 pM (6 of 6 replicates; controls 0 of 18). Variant S25V/V29P/W56N [GP_Gen] gave 510 pM (6 of 6 replicates; controls 1 of 18). For S25L/S26M/V29E/W56N/T59Q [GP_Gen], the assay gave 760 pM (6 of 6 replicates; controls 1 of 18). For S25L/S38N/W56N/S62M [GP_Gen], the assay gave 300 pM (6 of 6 replicates; controls 0 of 18). Variant S25L/W56H/T59Q [GP_Gen] showed 580 pM (6 of 6 replicates; controls 1 of 18). With S25F/V29W/W56G/T59A/S62V [GP_HC] the result was 1.4 nM (6 of 6 replicates; controls 1 of 18). Variant P101C [Ctrl] showed nd (0 of 6 replicates; controls 0 of 18).

For K24M/V29W/W56G [GP_HC], the assay gave 1.9 nM (6 of 6 replicates; controls 1 of 18). For S25L/S26H/N35H/W56G/T59K [GP_Gibbs], the assay gave 32 nM (6 of 6 replicates; controls 0 of 18). Variant S25L/S26E/V29Q/L30W/W56N [GP_Gen] showed 2.0 nM (6 of 6 replicates; controls 0 of 18). Variant S25L/S26E/V29Q/L30Q/W56N [GP_Gen] gave 7.5 nM (4 of 6 replicates; controls 0 of 18). Variant V29H/E32V [Ctrl] gave 98 nM (2 of 6 replicates; controls 0 of 18). Variant S25L/V29E/W56E/T59C [GP_Gen] gave 12 nM (6 of 6 replicates; controls 1 of 18). With S25C/R34M/W56S/Q96I [Ctrl] the result was 120 nM (6 of 6 replicates; controls 0 of 18).

Variant S25L/S26R/Q27M/V29T/W56H [GP_HC] gave 1.8 nM (6 of 6 replicates; controls 2 of 18). With K24R/S26P/L30R/W56A/S58N [Ctrl] the result was 1.8 nM (6 of 6 replicates; controls 0 of 18). Variant S25L/S26P/V29M/W56E [GP_Gen] gave 340 pM (6 of 6 replicates; controls 0 of 18). Variant S25L/Q27T/E61F [Ctrl] showed 6.1 nM (6 of 6 replicates; controls 1 of 18). Variant S25L/L30E/W56E/T59Q [GP_Gen] gave 1.9 nM (6 of 6 replicates; controls 0 of 18). For T59F/Q95N/H98F/R99H [Ctrl], the assay gave nd (0 of 6 replicates; controls 1 of 18). Variant S28V/V29Y/L30D/W56G [GP_HC] gave 20 nM (6 of 6 replicates; controls 0 of 18).

Variant S26P/W56H/S62D/H98G [GP_HC] showed 1.2 nM (6 of 6 replicates; controls 3 of 18). Variant S26G/W56A [Ctrl] showed 7.2 nM (6 of 6 replicates; controls 2 of 18). Variant S26E/W56H/S62D/H98G [GP_HC] showed 900 pM (6 of 6 replicates; controls 1 of 18). Variant Q27F/L30D/Y31F/W56D [GP_HC] gave 900 pM (6 of 6 replicates; controls 0 of 18). Variant S25L/Q27G/V29H/W56G [GP_Gen] gave 660 pM (6 of 6 replicates; controls 2 of 18). For S25L/V29T/W56D [GP_Gen], the assay gave 240 pM (6 of 6 replicates; controls 0 of 18). Variant S25L/V29Y/S33Q/W56N/E61L [GP_Gen] gave 1.1 nM (6 of 6 replicates; controls 2 of 18).

With S25L/Q27C/W56E [GP_Gen] the result was 1.1 nM (6 of 6 replicates; controls 1 of 18). Variant S25L/S26Q/V29Q/L30G/W56H [GP_Gen] showed 1.8 nM (6 of 6 replicates; controls 0 of 18). Variant K24Y/S25L/W56N/S62Q [GP_Gen] showed 2.2 nM (6 of 6 replicates; controls 0 of 18). With S25L/S26P/V29H/W56A [GP_Gen] the result was 680 pM (6 of 6 replicates; controls 1 of 18). With L30K/Y31F/W56D/S62Y [GP_HC] the result was 1.7 nM (6 of 6 replicates; controls 2 of 18). Variant S33D/L100D [Ctrl] showed nd (0 of 6 replicates; controls 1 of 18). Variant K36S/L102E [Ctrl] showed nd (0 of 6 replicates; controls 0 of 18).

The last 7 entries again:

With S25L/Q27C/W56E [GP_Gen] the result was 1.1 nM (6 of 6 replicates; controls 1 of 18).
With S25L/S26Q/V29Q/L30G/W56H [GP_Gen] the result was 1.8 nM (6 of 6 replicates; controls 0 of 18).
With K24Y/S25L/W56N/S62Q [GP_Gen] the result was 2.2 nM (6 of 6 replicates; controls 0 of 18).
With S25L/S26P/V29H/W56A [GP_Gen] the result was 680 pM (6 of 6 replicates; controls 1 of 18).
With L30K/Y31F/W56D/S62Y [GP_HC] the result was 1.7 nM (6 of 6 replicates; controls 2 of 18).
With S33D/L100D [Ctrl] the result was nd (0 of 6 replicates; controls 1 of 18).
With K36S/L102E [Ctrl] the result was nd (0 of 6 replicates; controls 0 of 18).

Empty control strains, which show no peptide, gave a signal in 4% of pairings with all light chain designs; the median was 430 nM and 95% of these signals were weaker than 38 nM. No background was subtracted. Also given: how often the same scFv was detected with the empty control strains. In the paper, a design with two or fewer of six values counts as a poor binder.